Results: publication PMC6324732 (Cancer immunology research, 2018)
Read-outs that look alike come from different tables or passages of the source.

Columns and labels:
[1] = target: HLA-A*02:01 heavy chain / β2-microglobulin (human); assay: differential scanning fluorimetry
[2] = target: biotinylated HLA-A*02:01 heavy chain / β2-microglobulin (human); assay: bead-based flow cytometry dissociation time course
[3] = target: biotinylated HLA-A*02:01 heavy chain / β2-microglobulin (human); assay: bead-based flow cytometry dissociation time course; remark: listed apart in the source

| Tm of the peptide/HLA-A2 complex [1] | half-life of the complex at 37°C [2] | half-life of the complex at 37°C [3] | Molecule |
| --- | --- | --- | --- |
| 59.3 °C | – | – | MART-1 anchor-modified 10-mer peptide … |
| – | 15.1 h | 14.7 h | RMFPNAPYL [WT-1 peptide … (Wilms tumor antigen)] |
